Experimental data as given in PMC6204840.
pEC50: −log10 of the molar value.

Amino acid sequences for entries named in this document (tags omitted). Residues count along the entry.
UniProt P02745, 23-245: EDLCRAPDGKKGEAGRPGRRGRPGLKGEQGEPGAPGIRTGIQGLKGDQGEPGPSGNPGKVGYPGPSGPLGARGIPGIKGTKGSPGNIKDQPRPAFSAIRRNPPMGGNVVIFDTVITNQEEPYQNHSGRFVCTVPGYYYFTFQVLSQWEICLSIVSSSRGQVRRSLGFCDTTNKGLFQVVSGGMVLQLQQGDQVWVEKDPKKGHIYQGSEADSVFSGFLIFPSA
Purified C1q, UniProt P02746, 28-253: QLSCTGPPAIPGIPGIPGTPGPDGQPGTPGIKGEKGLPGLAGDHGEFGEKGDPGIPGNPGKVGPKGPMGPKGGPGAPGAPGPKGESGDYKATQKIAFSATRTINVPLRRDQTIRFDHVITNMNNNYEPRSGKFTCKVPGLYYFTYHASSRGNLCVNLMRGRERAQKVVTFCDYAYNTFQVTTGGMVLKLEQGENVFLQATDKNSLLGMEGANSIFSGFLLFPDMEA
Purified C1q, UniProt P02747, 29-245: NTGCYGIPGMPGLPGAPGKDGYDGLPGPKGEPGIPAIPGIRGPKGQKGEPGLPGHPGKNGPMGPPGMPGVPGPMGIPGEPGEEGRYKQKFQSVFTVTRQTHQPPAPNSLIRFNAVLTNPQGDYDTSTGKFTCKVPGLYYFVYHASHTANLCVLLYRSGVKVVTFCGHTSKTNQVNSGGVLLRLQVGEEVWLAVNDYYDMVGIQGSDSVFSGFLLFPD

Columns and labels:
Experiment in all cases: ELISA
[1] = biological target: rituximab IgG1 with Fc variant DF197 (human)
[2] = biological target: rituximab IgG1 with Fc variant DF213 (human)
[3] = biological target: rituximab IgG1 with Fc variant YTE (human)
[4] = biological target: rituximab IgG1 with Fc variant DF183 (human)
[5] = biological target: rituximab IgG1 with wild type Fc (human)
[6] = biological target: rituximab IgG1 with Fc variant DF228 (human)
[7] = biological target: rituximab IgG1 with Fc variant LS (human)
[8] = biological target: rituximab IgG1 with Fc variant DF215 (human)

pEC50 [1]: 7.34 | pEC50 [2]: 7.69 | pEC50 [3]: 7.67 | pEC50 [4]: 7.78 | pEC50 [5]: 7.65 | pEC50 [6]: 7.68 | pEC50 [7]: 7.67 | pEC50 [8]: 7.66
Substance: Purified C1q (from UniProt P02745 23-245; P02746 28-253; P02747 29-245) (complex)
